Laboratory results taken from patent US10208020B2 (dated 2019).

The chains behind the UniProt entries cited, without tags or fusion partners. Residues count along the entry.
UniProt Q13231, 22-466: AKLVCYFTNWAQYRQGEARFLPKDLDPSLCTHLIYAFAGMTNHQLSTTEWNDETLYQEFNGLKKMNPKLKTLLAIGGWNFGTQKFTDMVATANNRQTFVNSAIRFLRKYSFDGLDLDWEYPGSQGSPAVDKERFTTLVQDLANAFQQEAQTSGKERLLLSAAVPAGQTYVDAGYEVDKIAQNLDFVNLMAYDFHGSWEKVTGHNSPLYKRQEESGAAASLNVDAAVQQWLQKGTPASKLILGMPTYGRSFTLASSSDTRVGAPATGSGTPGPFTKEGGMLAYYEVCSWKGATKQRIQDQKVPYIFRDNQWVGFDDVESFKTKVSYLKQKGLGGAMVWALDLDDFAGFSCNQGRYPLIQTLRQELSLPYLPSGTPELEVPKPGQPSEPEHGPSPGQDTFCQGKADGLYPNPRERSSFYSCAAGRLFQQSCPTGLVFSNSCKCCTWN

Molecular target: recombinant human CHIT1 (Homo sapiens (Human), UniProt Q13231)
Experiment: Human CHIT1 activity assay
Assay type: biochemical

`NC(=O)[C@H]1CN(C2CCN(c3nnc(N)[nH]3)CC2)[C@@H](Cc2ccc(Cl)cc2)CO1` [Example 9, (2R,5S)-4-(1-(5-amino-4H-1,2,4-triazol-3-yl)piperidin-4-yl)-5-(4-chlorobenzyl)morpholine-2-carboxamide] was tested, and the IC50 was less than 0.1 µM.
